Measurements as given in patent US7351728B2, “Oxazolyl-aryloxyacetic acid derivatives and their use as PPAR agonists” (Eli Lilly and Company, priority 2003, dated 2008).

Test system: huPPARα
Experiment: Cotransfection assay in CV-1 cells, luciferase reporter (GAL4 chimeric system)
Assay type: cell-based, human
Settings: cotransfection efficacy relative to PPARα agonist reference molecule
Procedure: Cotransfection assays were carried out in CV-1 cells.

For `Cc1oc(-c2ccccc2)nc1CCOc1ccc(OC(C)(Cc2ccccc2)C(=O)O)cc1` (stereo not shown) [Example 6, 2-Methyl-2-{4-[2-(5-methyl-2-phenyloxazol-4-yl)ethoxy]phenoxy}-3-phenylpropionic acid], the “huPPARα CTF Eff. (%)” value was 80%.
